From patent publication US7829280B2, “Process for reducing interferences in luciferase enzyme assays” (LuminUltra Technologies Ltd., priority 2007, dated 2010) come the findings set out here.

Amino acid sequences for entries named in this document (tags omitted).
UniProt P08659, whole entry: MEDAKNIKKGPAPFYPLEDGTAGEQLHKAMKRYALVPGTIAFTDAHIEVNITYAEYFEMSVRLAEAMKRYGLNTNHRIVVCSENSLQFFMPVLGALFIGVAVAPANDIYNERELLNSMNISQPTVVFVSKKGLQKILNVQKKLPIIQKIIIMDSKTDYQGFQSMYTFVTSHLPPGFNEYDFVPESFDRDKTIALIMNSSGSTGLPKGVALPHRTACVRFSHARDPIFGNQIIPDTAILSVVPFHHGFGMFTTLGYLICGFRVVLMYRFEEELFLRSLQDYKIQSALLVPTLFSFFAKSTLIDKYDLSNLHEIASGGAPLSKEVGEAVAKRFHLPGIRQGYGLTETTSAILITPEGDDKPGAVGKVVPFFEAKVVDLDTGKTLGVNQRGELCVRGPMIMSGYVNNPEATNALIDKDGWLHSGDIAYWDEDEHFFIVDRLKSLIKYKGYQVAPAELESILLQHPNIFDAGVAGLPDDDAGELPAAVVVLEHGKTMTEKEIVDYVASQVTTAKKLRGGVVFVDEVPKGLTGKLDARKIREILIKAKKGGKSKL

Where only a bound is given, the exact number is not on record here.

Type in all cases: biochemical
For assay [1], the target named is T1, firefly luciferase (Photinus pyralis, UniProt P08659). Description: Combined treatment with soluble (β-cyclodextrin) and insoluble (IRC-748) neutralizers of ADBAC inhibition of firefly luciferase. Conditions: for RLU: β-cyclodextrin 3,750 mg/L, resin 1 part per 3 parts. On the procedure:
Other experiments determined that insoluble agents could be used in combination with soluble agents to cause further reductions in enzyme inhibition. An initial solution containing 7200 mg/L ADBAC and 1 ng ATP per mL was prepared in phosphate buffer. A stronger concentration of ADBAC was used in this experiment to facilitate the observation of the degree of neutralization. Four dilution series were prepared from this stock solution. One series was diluted only in a phosphate buffer. Another identical series was prepared in the phosphate buffer but was pre-treated with IRC-748 chelating resin (3 parts solution treated with one part resin) prior to assaying for ATP. The third dilution series was made in a phosphate buffer containing p-cyclodextrin (a soluble compound that can neutralize ADBAC) so that each member of the series contained 3,750 β-cyclodextrin. The fourth series was prepared in the same way as the third series, except that each member of the series was pre-treated with IRC-748 chelating resin (3 parts solution treated with one part resin) prior to assaying for ATP. All solutions were assayed for ATP by mixing 100 microliters of solution with 100 microliters of luciferase reagent and measuring the light produced in a Kikkoman luminometer.
The experiment described in Example 5 compares the ability of a soluble agent (β-cyclodextrin) and an insoluble agent (chelating resin, IRC-748) and their combination to neutralize the inhibition of the bioluminescent reaction catalyzed by firefly luciferase.
In the first members of the dilutions series, the ATP solution contained 0.5 ng ATP per mL and 3600 mg/L ADBAC. A concentrate of cyclodextrin was added to the ATP solutions in some of the tests to maintain concentration of 3,750 mg/L through the dilution series.

For assay [2], the target named is T1, firefly luciferase. Description: Firefly luciferase assay of ATP standard solution containing ADBAC, with and without chelating resin pre-treatment. The following applies: 10 ng/mL ATP. On the procedure: A trisodium phosphate buffer solution containing 10 nanograms ATP per mL and 1000 mg/L of alkyl dimethybenzyl ammonium chloride (ADBAC) was assayed for ATP by mixing 100 microliters of this solution with 100 microliters of luciferase reagent. The light produced in this reaction was measured in a luminometer (Kikkoman C-100 Lumitester). Several dilutions of this ATP solution were also prepared in phosphate buffer and tested. In addition, a 3 mL portion of this solution was mixed with 1 mL of a chelating resin (IRC748, Rohm and Haas Company) and similarly diluted in phosphate buffer, then assayed for ATP.
Table 1 outlines the results obtained from an experiment of assaying a 10 ng/mL ATP standard solution in phosphate buffer containing 1000 mg/L alkyl dimethybenzyl ammonium chloride (ADBAC), following dilution in a phosphate buffer, with and without pre-treatment with the chelating resin IRC-748.

The target in assay [3] is T1, firefly luciferase. Description: Firefly luciferase assay for ATP in ADBAC extract of wastewater effluent, with and without chelating resin. Conditions: dilution of ADBAC (1000 mg/L) in ATP extract ⅛, resin 1 mL per 3 mL extract. On the procedure: In this experiment, a phosphate buffer also containing 1000 mg/L ADBAC is used to extract ATP from a sample containing microorganisms. 2 mL of a sample from the effluent of a municipal sewage plant was mixed with 2 mL of the ADBAC solution. The ATP released by this process was measured in a Kikkoman luminometer by mixing 100 microliters of the mixture and combining it with 100 microliters of a luciferase assay mixture. Several dilutions of this ATP extract were also prepared in phosphate buffer and tested. In addition, a 3 mL portion of the ATP extract was mixed with 1 mL of a chelating resin (IRC748, Rohm and Haas Company) and similarly diluted in phosphate buffer, then assayed for ATP.
The ATP extract in this experiment was produced by mixing a solution containing 1000 mg/L ADBAC in phosphate buffer. Further dilutions were made in a phosphate buffer. The chelating resin was IRC-748. The resin treatment consisted of mixing 1 mL of resin with 3 mL of extract, then allowing the resin beads to settle before ATP analysis.

On to “alkyl dimethybenzyl ammonium chloride [ADBAC]”, for which the RLU in assay [1] (dilution 1/16 of 7200 mg/L ADBAC, 1 ng ATP per mL stock) is recorded as 423 RLU; in assay [1] (dilution ¼ of 7200 mg/L ADBAC, 1 ng ATP per mL stock), 6 RLU; in assay [1] (dilution ½ of 7200 mg/L ADBAC, 1 ng ATP per mL stock (3600 mg/L ADBAC, 0.5 ng/mL ATP)), 5 RLU; in assay [1] (dilution ⅛ of 7200 mg/L ADBAC, 1 ng ATP per mL stock), 58 RLU; in assay [3], 6,512 RLU. In assay [1] (neither resin nor cyclodextrin treatment, 7200 mg/L ADBAC stock), the “dilution required to prevent suppression of enzyme activity” value is recorded as ≥ 16 fold. The “RLU (Relative Light Units)” value in assay [2] (dilution 1/16 in phosphate buffer, 1000 mg/L ADBAC stock, resin 1 mL per 3 mL) was 6,036 RLU; in assay [2] (dilution none, 1000 mg/L ADBAC in phosphate buffer, resin 1 mL per 3 mL solution) it was 1,254 RLU; in assay [2] (dilution ¼ in phosphate buffer, 1000 mg/L ADBAC stock, resin 1 mL per 3 mL), 16,362 RLU; in assay [2] (dilution ½ in phosphate buffer, 1000 mg/L ADBAC stock, resin 1 mL per 3 mL), 1,549 RLU; in assay [2] (dilution ⅛ in phosphate buffer, 1000 mg/L ADBAC stock, resin 1 mL per 3 mL), 11,725 RLU.
